According to article PMC2917805 (Journal of medicinal chemistry, 2010):

Conditions: NMR solvent D2O

Question: Which “solubility in D2O” value does the source give for “Resveratrol Tetrabutylammonium 4′-Sulfate [compound 6]” here?
Answer: Not soluble in D2O.
